This is a selection; strong and weak results do not stand in their true shares. The source made the active and inactive calls. No stated cut-off is given here; in the data, active means inhibition above about 50%; inactive means the rest.
Molecular target: Histone-lysine N-methyltransferase NSD2 (Homo sapiens) (UniProt O96028)
Assay: NSD2 histone methyltransferase inhibitors, primary screen, biochemical, AlphaScreen, single concentration, set 2 (AID 743445)
Conditions: NSD2 peptide methylation, 120 min, at 12.5 µM, stronger effect = higher value

Chains of the proteins cited; added tags and fusions are not shown.
UniProt O96028, whole entry: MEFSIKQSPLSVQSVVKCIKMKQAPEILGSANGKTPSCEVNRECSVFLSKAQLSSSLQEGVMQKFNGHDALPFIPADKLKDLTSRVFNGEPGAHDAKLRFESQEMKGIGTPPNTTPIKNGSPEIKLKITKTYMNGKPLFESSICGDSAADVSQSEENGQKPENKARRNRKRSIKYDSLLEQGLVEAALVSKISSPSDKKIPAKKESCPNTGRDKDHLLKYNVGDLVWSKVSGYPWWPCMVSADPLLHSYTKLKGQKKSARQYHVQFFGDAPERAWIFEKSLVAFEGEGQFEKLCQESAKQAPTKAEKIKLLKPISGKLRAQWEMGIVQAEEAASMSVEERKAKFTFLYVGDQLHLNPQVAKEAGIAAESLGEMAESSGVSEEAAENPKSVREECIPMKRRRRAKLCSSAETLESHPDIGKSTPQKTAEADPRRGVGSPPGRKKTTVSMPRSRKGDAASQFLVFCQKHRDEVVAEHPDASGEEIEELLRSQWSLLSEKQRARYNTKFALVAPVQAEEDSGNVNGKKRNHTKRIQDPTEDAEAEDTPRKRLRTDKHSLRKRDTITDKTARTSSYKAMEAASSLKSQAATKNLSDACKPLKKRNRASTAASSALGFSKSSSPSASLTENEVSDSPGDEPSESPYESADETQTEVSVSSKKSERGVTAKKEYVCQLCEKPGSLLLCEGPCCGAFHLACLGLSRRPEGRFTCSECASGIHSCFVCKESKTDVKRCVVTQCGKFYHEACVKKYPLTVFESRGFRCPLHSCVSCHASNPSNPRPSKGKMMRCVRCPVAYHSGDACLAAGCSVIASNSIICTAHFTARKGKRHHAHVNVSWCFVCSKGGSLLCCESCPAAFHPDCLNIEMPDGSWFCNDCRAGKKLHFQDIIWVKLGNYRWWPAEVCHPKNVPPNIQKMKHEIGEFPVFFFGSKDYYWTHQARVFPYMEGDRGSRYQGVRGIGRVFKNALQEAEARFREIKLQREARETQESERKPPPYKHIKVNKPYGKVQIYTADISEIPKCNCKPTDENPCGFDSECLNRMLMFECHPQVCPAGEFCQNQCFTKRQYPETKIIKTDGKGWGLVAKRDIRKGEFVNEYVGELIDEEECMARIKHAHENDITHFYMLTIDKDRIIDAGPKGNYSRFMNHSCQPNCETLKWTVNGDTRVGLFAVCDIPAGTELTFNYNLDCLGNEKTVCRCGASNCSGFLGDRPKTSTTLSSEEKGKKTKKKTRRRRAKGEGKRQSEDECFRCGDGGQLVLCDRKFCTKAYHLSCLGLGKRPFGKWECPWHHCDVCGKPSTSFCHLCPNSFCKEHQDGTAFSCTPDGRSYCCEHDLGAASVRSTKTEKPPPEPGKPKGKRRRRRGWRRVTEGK

SMILES | inhibition
CC(C)c1ccc(NC2CCN(C(=O)OC(C)(C)C)CC2)cc1 | inactive: 6.39%
O=C(NCC1(N2CCOCC2)CCCCC1)c1cc(F)c(F)cc1Cl | inactive: -2.23%
COc1cc(OC)c(C(=O)NCC2(N(C)C)CCCCC2)cc1OC | inactive: 4.77%
O=C(NCC1(N2CCCCC2)CCCCC1)c1cccc(C(F)(F)F)c1 | inactive: 2.09%
COc1ccc(NC2CCN(C(=O)OC(C)(C)C)CC2)cc1 | inactive: 9.53%
CC(C)c1ccc(C(=O)NCC2(N3CCOCC3)CCCCC2)cc1 | inactive: -1.38%
CN1CCN(CCOC(=O)C(O)(c2ccccc2)c2ccccc2)CC1 | inactive: 2.67%
O=C(NCC1(N2CCOCC2)CCCCC1)c1cc(=O)[nH]c2ccccc12 | inactive: 1.53%
COc1cc(C(=O)NCC2(N3CCCCC3)CCCCC2)ccc1OC(F)F | inactive: 0.86%
O=C(NCC1(N2CCCCC2)CCCCC1)c1cccc([N+](=O)[O-])c1 | inactive: -1.62%
CSc1ccc(C(=O)NCC2(N3CCOCC3)CCCCC2)cc1 | inactive: -0.654%
N#CC1(Nc2ccccc2)CCN(CCc2ccccc2)CC1 | inactive: 0.401%
CCN1CCC(Nc2ccc(Cl)cc2)CC1 | inactive: 3.44%
CCCN1CCC(Nc2cc(OC)cc(OC)c2)CC1 | inactive: 12.4%
Cc1cc(N(CCCl)CCCl)ccc1C=O | inactive: -2.75%
c1ccc(CN2CCC(Nc3ccccc3)CC2)cc1 | inactive: -6.75%
C/C(N)=N\P(=O)(Oc1ccccc1)Oc1ccccc1 | inactive: -0.002%
CN(C)C1(CNC(=O)c2cccc(C#N)c2)CCCCC1 | inactive: 0.575%
CC(C)(C)OC(=O)N1CCC(N(C(=O)c2ccccc2)c2ccc(Cl)cc2)CC1 | inactive: -2.09%
N#Cc1ccc(C(=O)NCC2(N3CCCCC3)CCCCC2)cc1 | inactive: -3.81%
N/C(=N\O)c1c(N)no[n+]1[O-] | inactive: 0.956%
CCOC(=O)N1CCC(Nc2ccc(C)cc2)CC1 | inactive: 3.21%
O=C(OC1CN2CCC1CC2)C1c2ccccc2C=Cc2ccccc21 (stereo not given) | inactive: 3.05%

SMILES | inhibition
O=C(NCC1(N2CCOCC2)CCCCC1)c1cc(Br)ccc1Cl | inactive: -4.74%
COc1cc(C(=O)NCC2(N3CCOCC3)CCCCC2)cc(OC)c1C | inactive: 3.26%
COc1ccc(C(=O)NCC2(N3CCOCC3)CCCCC2)cc1OC | inactive: -1.85%
NC(=O)C1(Nc2ccccc2)CCN(Cc2ccccc2)CC1 | inactive: 0.133%
CCC(CO)(C(=O)OC1CN2CCC1CC2)c1ccccc1 (stereo not given) | inactive: 0.13%
COc1cccc(C(=O)N(c2cc(C)cc(C)c2)C2CCN(C(=O)OC(C)(C)C)CC2)c1 | inactive: -1.71%
COc1cc(OC)cc(C(=O)NCC2(N3CCOCC3)CCCCC2)c1 | inactive: -3.79%
CN1CCC(Nc2ccc(Cl)cc2)CC1 | inactive: 3.23%
CN1CCC(Nc2ccc(F)c(Cl)c2)CC1 | inactive: 4.19%
CCOc1ncccc1C(=O)NCC1(N2CCOCC2)CCCCC1 | inactive: 0.401%
CCCOc1ccc(C(=O)NCC2(N(C)C)CCCCC2)cc1 | inactive: 10.2%
O=C(O)C1(Nc2ccccc2)CCN(Cc2ccccc2)CC1 | inactive: 1.12%
CC(C)(C)OC(=O)N1CCC(Nc2ccccc2)CC1 | inactive: 24.4%
CCN1CCC(Nc2cccc(F)c2)CC1 | inactive: 2.22%
Cc1ccccc1NC1(C#N)CCN(Cc2ccccc2)CC1 | inactive: -10.7%
Cn1c(=O)[nH]cc(N(CCCl)CCCl)c1=O | inactive: 1.37%
O=C(NCC1(N2CCCCC2)CCCCC1)c1ccco1 | inactive: -0.176%
COc1cc(OC)cc(C(=O)NCC2(N3CCCCC3)CCCCC2)c1 | inactive: -0.78%
CC(=O)N(c1ccccc1)C1CCNCC1 | inactive: -1.3%
Cc1ccc(NC2(C#N)CCN(Cc3ccccc3)CC2)cc1 | inactive: -1.41%
Fc1ccccc1NC1CCN(Cc2ccccc2)CC1 | inactive: 0.226%
Cc1ccc(C(=O)NCC2(N3CCCCC3)CCCCC2)o1 | inactive: 5.49%
